The record followed here is PubChem BioAssay AID1346378 (National Center for Advancing Translational Sciences (NCATS), 2018).

By UniProt entry, the sequences of proteins in these tests, tags left out.
UniProt Q9BTU6, whole entry: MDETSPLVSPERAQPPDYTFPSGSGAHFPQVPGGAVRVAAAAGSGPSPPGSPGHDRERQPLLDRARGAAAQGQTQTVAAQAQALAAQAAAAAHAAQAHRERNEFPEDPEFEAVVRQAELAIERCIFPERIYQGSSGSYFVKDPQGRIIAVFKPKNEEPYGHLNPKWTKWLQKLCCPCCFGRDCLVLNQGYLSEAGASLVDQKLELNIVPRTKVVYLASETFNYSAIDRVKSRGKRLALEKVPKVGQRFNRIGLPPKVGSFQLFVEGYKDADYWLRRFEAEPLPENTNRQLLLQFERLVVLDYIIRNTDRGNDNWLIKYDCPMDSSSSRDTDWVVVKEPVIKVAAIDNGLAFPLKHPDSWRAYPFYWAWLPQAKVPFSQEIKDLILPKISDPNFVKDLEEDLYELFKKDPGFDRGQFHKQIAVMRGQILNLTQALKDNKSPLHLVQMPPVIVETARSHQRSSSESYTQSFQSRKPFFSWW

The entries are a selection whose mix differs from that of the whole data set. Calls of active or inactive are those of the source. Rule as the data show it: active = activity change below about -50%; inconclusive = mostly about -30% to -49%; inactive = weaker than that.

This experiment deals with Phosphatidylinositol 4-kinase type 2-alpha (Homo sapiens) (UniProt Q9BTU6). Description: qHTS for small molecular inhibitors of PI4K2A.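 As to activity change, negative = inhibition: -100% = wells without enzyme as full effect.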 The following applies: purified PI4K2A, ADP-Glo luminescence, 1 h; at 76.9 µM, hits give low values. From the text:
The phosphatidylinositol 4-phosphate (PI4P) is emerging as a key regulator of lipid transfer in ER-membrane contact sites. The four different phosphatidylinositol 4-kinase (PI4K) enzymes generate PI4P in different membrane compartments supporting distinct cellular processes many of which are crucial for the maintenance of cellular integrity but also hijacked by intracellular pathogens. The goal of this screening project is to search for small molecular inhibitors of PI4K2A based on a high throughput screening strategy.The ADP-Glo assay was used as a starting point to develop a miniaturized version for HTS applications. To implement the HTS screen, the PI4K ADP-Glotrade mark Kinase assay (Promega, V9102) was miniaturized for the 1536-well format used at NCGC.
For the robotic screening, the ADP-Glo assay using the ADP-Glotrade mark Kinase Assay kit from Promega was miniaturized and optimized on 1536-well white solid bottom plates (Greiner Bio-one). The substrate, 1.2 mM PI, prepared in the assay buffer (40mM Tris pH7.5, 20mM MgCl2, 1mM EGTA, 0.4% Triton X-100, 0.5mM DTT, 0.5mg/ml BSA) and PI4K2A enzyme, diluted also in the assay buffer to 4ug/mL, were dispensed onto the plates in equal volumes (1microl/well), pinned with 23 nL/well tested compounds or control followed by dispensation of 1microl/well 300microM ATP. The plates were incubated for one hour. Then, 2 µL/well of ADP-Glo reagent was added and incubated for 40 minutes. Next, 4microL/well of Kinase Detection Buffer was added to the plates and incubated for additional 40 minutes. All incubation steps were performed at ambient temperature. The resulting luminescence signal was measured on Viewlux plate reader (PerkinElmer). Adenosine, a partial non-specific inhibitor, was used as a positive control at 100microM final concentration to assess the assay's quality and plate-to-plate reproducibility. We also used "no enzyme" control to gauge the assay's maximal potential inhibition (IC100).
`CCC(=O)N(c1ccccc1)C1(COC)CCN(CCn2nnn(CC)c2=O)CC1`: the activity change, negative = inhibition is inactive: -0.883% and the compound was classed as inactive. Consider `CCC(=O)N(c1ccccc1)C1(COC)CCN(CCc2cccs2)CC1`, for which the activity change, negative = inhibition was inactive: 1.63% and the result was inactive. Turning to `CN(CCCl)CCCl`, the activity change, negative = inhibition was inactive: -4.8%.
